Test [1] deals with 人源重组C5蛋白 (Sino Biologica, Cat#13416-H18H) (human) (UniProt P01031). The test is described as follows: BLI (Octet), antibody on AHC sensor, C5 0.4688-30 nM; run no. 1.
Test [2] shares this target. The test is described as follows: BLI (Octet), antibody on AHC sensor, C5 0.4688-30 nM; run no. 5.
Test [3] has the same target. The test is described as follows: BLI (Octet), antibody on AHC sensor, C5 0.4688-30 nM; run no. 3.
The target is the same in test [4]. The test is described as follows: BLI (Octet), antibody on AHC sensor, C5 0.4688-30 nM; run no. 2.
For test [5] the target is unchanged. The test is described as follows: BLI (Octet), antibody on AHC sensor, C5 0.4688-30 nM; run no. 4.

Kd, koff and kon data for 1 substance are collected here from patent CN114149501A.

As to “伊库利珠单抗(Eculizumab，Soliris/Alexion) (antibody)”, the Kd in test [1] turned out to be 0.553 nM; in test [2], 0.371 nM; in test [3] it was 0.399 nM; in test [4] it was 0.377 nM; in test [5], 0.435 nM. Moreover, the koff came to 0.0003 s⁻¹ in test [1]; 0.00013 s⁻¹ in test [2]; 0.000152 s⁻¹ in test [3]; 0.000149 s⁻¹ in test [4]; 0.000164 s⁻¹ in test [5]. The kon stood at 544000 M⁻¹ s⁻¹ in test [1]; 351000 M⁻¹ s⁻¹ in test [2]; 381000 M⁻¹ s⁻¹ in test [3]; 394000 M⁻¹ s⁻¹ in test [4]; 377000 M⁻¹ s⁻¹ in test [5].
